Assay results from patent publication US9951038B2, “Quinazolin-4(3H)-one-type piperidine compounds and uses thereof” (Purdue Pharma L.P., priority 2012, dated 2018).

Sequences of proteins named here, by UniProt entry; tags and fusion partners are left off. A change or cut given only in a name is not applied to a line headed by its entry.
UniProt P41146: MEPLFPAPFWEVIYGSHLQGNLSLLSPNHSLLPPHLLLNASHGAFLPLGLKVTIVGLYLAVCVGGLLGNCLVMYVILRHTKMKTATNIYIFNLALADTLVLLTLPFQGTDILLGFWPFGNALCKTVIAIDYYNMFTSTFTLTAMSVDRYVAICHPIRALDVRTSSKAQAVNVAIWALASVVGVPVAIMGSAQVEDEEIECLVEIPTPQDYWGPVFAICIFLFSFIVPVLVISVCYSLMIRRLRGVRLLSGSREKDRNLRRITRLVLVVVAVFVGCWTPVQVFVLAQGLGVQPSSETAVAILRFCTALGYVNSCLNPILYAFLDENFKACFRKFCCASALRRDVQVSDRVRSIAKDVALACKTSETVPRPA

These compounds were tested against human opioid receptor-like (ORL-1) (Homo sapiens, UniProt P41146) (assay: In vitro ORL-1 receptor binding assay ([3H]-nociceptin displacement)). Details: read-out: ORL-1 Ki; Average ± Std Deviation; membranes from recombinant HEK-293 cells, 0.1 nM [3H]-nociceptin.
`O=C(O)Cn1c(=O)n(C2C[C@H]3CCC[C@@H](C2)N3C2C[C@H]3CCC[C@@H](C2)C3)c(=O)c2ccccc21` (stereo partly drawn) [15 (D3a), 2-(3-((1R,1′R,3r,3′R,5S,5′S)-[3,9′-bi(9′-azabicyclo[3.3.1]nonan)]-3′-yl)-2,4-dioxo-3,4-dihydroquinazolin-1(2H)-yl)acetic acid] was tested, and the Ki was 46.1 nM. For `O=C(O)CNC(=O)Cn1c(=O)n(C2C[C@H]3CCC[C@@H](C2)N3C2C[C@H]3CCC[C@@H](C2)C3)c(=O)c2ccccc21` (stereo partly drawn) [18 (D28a), 2-(2-(3-((1R,1′R,3r,3′R,5S,5′S)-[3,9′-bi(9′-azabicyclo[3.3.1]nonan)]-3′-yl)-2,4-dioxo-3,4-dihydroquinazolin-1(2H)-yl)acetamido)acetic acid], the Ki was 134 nM. With `O=C(O)Cn1c(=O)n(C2C[C@H]3CCC[C@@H](C2)N3C2C[C@H]3CCCC[C@@H](C2)C3)c(=O)c2ccccc21` (stereo partly drawn) [21 (J3a), 2-(3-((1R,3R,5S)-9-((1R,6S,8r)-bicyclo[4.3.1]decan-8-yl)-9-azabicyclo[3.3.1]nonan-3-yl)-2,4-dioxo-3,4-dihydroquinazolin-1(2H)-yl)acetic acid] the Ki was 72.7 nM. In the case of `O=C(O)c1nc2ccccc2c(=O)n1C1C[C@H]2CCC[C@@H](C1)N2C1C[C@H]2CCC[C@@H](C1)C2` (stereo partly drawn) [9 (D2b), 3-((1R,1′R,3R,3′R,5S,5′S)-[3,9′-bi(9′-azabicyclo[3.3.1]nonan)]-3′-yl)-4-oxo-3,4-dihydroquinazoline-2-carboxylic acid], the Ki is reported as 8.86 nM. In the case of `O=c1[nH]c2ccccc2c(=O)n1C1C[C@H]2CCC[C@@H](C1)N2C1C[C@H]2CCC[C@@H](C1)C2` (some centres unmarked) [12 (D1a)], the Ki is reported as 4.98 nM.
